For one molecule, IC50 results are on record in ChEMBL document CHEMBL4428099, “Identification of indole scaffold-based dual inhibitors of NOD1 and NOD2” (Bioorg Med Chem, 2016).

The target in this experiment is T1, Nucleotide-binding oligomerization domain-containing protein 1 (Homo sapiens, UniProt Q9Y239).
T1 sequence (Q9Y239 whole entry): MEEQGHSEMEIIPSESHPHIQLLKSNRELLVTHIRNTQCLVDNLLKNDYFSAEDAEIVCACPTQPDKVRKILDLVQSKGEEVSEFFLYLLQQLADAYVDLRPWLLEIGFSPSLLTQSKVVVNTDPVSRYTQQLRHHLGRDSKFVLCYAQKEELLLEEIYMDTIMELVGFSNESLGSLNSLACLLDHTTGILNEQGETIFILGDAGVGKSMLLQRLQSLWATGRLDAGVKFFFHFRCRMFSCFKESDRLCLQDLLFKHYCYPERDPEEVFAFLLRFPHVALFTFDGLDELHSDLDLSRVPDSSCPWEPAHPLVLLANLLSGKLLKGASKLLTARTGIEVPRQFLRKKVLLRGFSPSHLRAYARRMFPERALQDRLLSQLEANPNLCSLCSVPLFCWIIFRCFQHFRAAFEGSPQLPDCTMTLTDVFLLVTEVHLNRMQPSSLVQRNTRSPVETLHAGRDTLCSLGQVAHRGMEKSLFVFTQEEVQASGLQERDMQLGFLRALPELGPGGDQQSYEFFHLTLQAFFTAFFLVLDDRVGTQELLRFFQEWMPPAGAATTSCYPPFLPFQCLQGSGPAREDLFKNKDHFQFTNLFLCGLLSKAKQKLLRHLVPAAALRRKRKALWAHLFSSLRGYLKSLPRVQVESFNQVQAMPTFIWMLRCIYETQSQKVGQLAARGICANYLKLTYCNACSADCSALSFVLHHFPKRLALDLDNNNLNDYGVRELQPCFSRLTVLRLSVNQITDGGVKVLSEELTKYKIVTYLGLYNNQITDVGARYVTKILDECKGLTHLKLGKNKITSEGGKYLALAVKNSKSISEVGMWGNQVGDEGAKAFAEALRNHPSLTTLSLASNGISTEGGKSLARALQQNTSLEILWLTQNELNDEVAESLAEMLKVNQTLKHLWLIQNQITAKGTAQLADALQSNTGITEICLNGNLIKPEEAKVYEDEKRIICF
The experiment is described as follows: Inhibition of human NOD1 over-expressed in HEK-Blue cells assessed as inhibition of […] NF-kappaB transcriptional activity preincubated for 1 hr followed by addition of C12-iE-DAP measured after 18 hrs by SEAP reporter gene assay. The format is cell-based. In general terms: A reporter such as luciferase makes a cellular process visible.

Each structure is given as a SMILES string.

For `Cc1ccc(S(=O)(=O)n2c(N)nc3ccccc32)cc1`, the IC50 fell in the range of 560 to 771 nM.

As usually defined, the IC50 is the concentration that gives 50% inhibition.
